# Values of other authors, collected in publication PMC11320581 (ACS Infectious Diseases, 2024).
# By UniProt entry, the sequences of proteins in these tests, tags left out. Where a name states a change or a piece, a line headed by the entry shows the natural chain unless it says otherwise.
# UniProt P22118, whole entry, stated change not applied: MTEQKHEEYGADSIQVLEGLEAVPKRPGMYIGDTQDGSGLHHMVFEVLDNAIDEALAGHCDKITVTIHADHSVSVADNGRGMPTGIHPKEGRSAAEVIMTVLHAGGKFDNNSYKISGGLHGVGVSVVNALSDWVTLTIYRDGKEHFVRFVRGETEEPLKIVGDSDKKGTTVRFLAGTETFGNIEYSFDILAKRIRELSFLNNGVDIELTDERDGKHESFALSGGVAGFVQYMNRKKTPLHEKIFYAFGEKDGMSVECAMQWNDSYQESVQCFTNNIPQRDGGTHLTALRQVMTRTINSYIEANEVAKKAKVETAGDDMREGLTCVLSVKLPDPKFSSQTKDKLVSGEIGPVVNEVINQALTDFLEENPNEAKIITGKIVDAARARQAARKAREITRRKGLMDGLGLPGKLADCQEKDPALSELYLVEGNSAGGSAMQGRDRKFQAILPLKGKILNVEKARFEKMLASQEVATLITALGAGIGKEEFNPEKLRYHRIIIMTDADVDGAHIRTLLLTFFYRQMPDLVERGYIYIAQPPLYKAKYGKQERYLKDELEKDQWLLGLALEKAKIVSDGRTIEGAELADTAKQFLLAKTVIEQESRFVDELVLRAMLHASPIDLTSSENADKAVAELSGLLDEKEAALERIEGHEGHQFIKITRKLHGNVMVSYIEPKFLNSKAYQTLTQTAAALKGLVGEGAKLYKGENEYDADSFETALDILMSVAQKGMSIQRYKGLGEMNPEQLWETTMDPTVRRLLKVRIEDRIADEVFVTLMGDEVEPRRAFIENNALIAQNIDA
# UniProt P48371: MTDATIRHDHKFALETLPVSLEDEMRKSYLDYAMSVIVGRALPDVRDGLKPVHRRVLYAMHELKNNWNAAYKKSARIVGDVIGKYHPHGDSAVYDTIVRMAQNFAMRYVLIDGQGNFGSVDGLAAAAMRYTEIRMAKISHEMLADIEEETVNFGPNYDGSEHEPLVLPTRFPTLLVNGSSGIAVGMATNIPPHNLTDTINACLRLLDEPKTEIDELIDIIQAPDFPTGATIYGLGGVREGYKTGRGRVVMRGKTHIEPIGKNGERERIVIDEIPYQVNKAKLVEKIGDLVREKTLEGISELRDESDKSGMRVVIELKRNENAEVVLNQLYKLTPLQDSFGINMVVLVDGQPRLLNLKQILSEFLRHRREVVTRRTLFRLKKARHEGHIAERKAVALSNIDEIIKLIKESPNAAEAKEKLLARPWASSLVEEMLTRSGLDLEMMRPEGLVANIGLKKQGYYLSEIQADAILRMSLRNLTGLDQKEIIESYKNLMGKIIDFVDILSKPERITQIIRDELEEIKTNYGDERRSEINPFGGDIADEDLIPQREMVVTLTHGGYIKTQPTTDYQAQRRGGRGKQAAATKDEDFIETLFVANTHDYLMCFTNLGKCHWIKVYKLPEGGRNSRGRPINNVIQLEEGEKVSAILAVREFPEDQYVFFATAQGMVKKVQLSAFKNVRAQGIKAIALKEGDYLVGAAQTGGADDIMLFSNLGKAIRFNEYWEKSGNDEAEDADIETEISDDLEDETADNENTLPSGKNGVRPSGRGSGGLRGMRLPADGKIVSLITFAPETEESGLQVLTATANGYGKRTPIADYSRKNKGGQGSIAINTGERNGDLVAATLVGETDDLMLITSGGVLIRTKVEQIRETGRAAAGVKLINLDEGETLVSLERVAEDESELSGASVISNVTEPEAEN
# Target: N. gonorrhoeae gyrase GyrA^S91F/D95G (Neisseria gonorrhoeae, UniProt P22118+P48371, D95G/S91F)
# Conditions: cited from earlier work
smiles,measurement,value
"C[C@@H]1CN2c3c(cc4c(N5C(=O)OC[C@@H]5C)noc4c3F)CC3(C(=O)NC(=O)NC3=O)[C@H]2[C@H](C)O1 [zoliflodacin, Zoliflodacin]",effect of the two mutations on potency against DNA supercoiling and cleavage reactions,minimally affected
